## Ab-91 heavy chain CDR variants: yeast mating affinities

The target is the same throughout: PDVDLGDISGINAS, from the HR2 region of SARS-CoV-2 spike.

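Phage display of a naive human antibody library on the peptide gave the parent. Library AAYL51 holds single substitutions and randomly drawn double and triple substitutions in the CDRs. Affinity was read by AlphaSeq, a pooled yeast mating assay with surface-displayed partners. The frequency of each diploid, read from paired DNA barcodes, reflects how well the two displayed proteins bind. Scores were corrected for input abundance and mapped to Kd with protein pairs of known affinity run in the same pool. The assay was run in three technical replicates.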

Parent: Ab-91, a human scFv built as VL, a 15-residue (Gly4Ser)3 linker, VH. Only the CDRs of the heavy chain vary.
VL: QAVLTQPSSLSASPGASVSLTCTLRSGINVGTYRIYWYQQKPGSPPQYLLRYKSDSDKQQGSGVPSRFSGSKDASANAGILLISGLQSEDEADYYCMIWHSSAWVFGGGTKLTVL
VH: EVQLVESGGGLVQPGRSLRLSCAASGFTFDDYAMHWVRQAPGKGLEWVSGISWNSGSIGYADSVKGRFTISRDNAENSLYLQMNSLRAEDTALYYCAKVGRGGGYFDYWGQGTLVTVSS

Each variant is given by its three heavy chain CDRs, as the data file delimits them; those of the parent are GFTFDDYAMH, GISWNSGSIGYADSVK, VGRGGGYFDY. Values are apparent Kd, the geometric mean of the replicates that gave a signal; lower means stronger binding. An entry "nd" has no value in the source: the pair was not observed among the diploids in any replicate. This suggests poor binding but is not conclusive. The list is sorted by this average, lowest first, undetected variants last.

Variant GFTFDDYAMH, GISWNSGSIGYADCVK, VGRGGGYDSY showed 4.9 nM (3 of 3 replicates; controls 0 of 9).
Variant GFTFDDYAMH, GISWNSGSIGYADWVK, VGRGGGLFSY showed 21 nM (3 of 3 replicates; controls 2 of 9).
Variant GFTFDGYAMH, GISWNSGSDGYADSVK, VRRGGGYFDY showed 23 nM (3 of 3 replicates; controls 0 of 9).
Variant GFTFDDYAMH, GISWGSGSIGYADSVK, VGRGGGYFNY showed 1.2 µM (1 of 3 replicates; controls 1 of 9).
Variant GFTFDHYAMH, GISWNSGSHGYADSQK, VGRGGGYFDY showed 1.5 µM (1 of 3 replicates; controls 0 of 9).
Variant GFTFDDYAMH, GISWNWGSIGYADSVK, VGPGGGYMDY showed 2.7 µM (1 of 3 replicates; controls 2 of 9).
Variant GFTFDDYMMH, GHSWNSGSIGYADNVK, VGRGGGYFDY showed 2.9 µM (1 of 3 replicates; controls 1 of 9).
Variant GFTFDDYFMH, GISWNSGSIGYADHVK, HGRGGGYFDY showed 3.4 µM (1 of 3 replicates; controls 1 of 9).
Variant GFTFDDYAMH, GISWNSGSIGYAWSVK, VGGGGGYFDY showed 3.6 µM (1 of 3 replicates; controls 1 of 9).
Variant GFTFADYAMH, GKSWNSGSIGYADSVV, VGRGGGYFDY showed 3.6 µM (1 of 3 replicates; controls 1 of 9).
Variant GFTFDDYCMH, GISWNSGSIGYADAVK, VERGGGYFDY showed 4.0 µM (1 of 3 replicates; controls 1 of 9).
Variant GFTFDDYAMH, GIEWFSISIGYADSVK, VGRGGGYFDY showed 5.3 µM (1 of 3 replicates; controls 3 of 9).
Variant GFTFDDYAMH, GPSWNSGSIGYADSVK, VGGGGGYFDY showed 17 µM (1 of 3 replicates; controls 0 of 9).
Variant KFTFDDYAMH, GISWNKGSIGYADSVK, VGRDGGYFDY showed 19 µM (1 of 3 replicates; controls 0 of 9).
Variant GFTKDDYAMH, GISWNSGSMGYAVSVK, VGRGGGYFDY showed 21 µM (1 of 3 replicates; controls 1 of 9).
Variant GFTFSDYAMH, GIPWDSGSIGYADSVK, VGRGGGYFDY showed 25 µM (3 of 3 replicates; controls 7 of 9).
Variant GFWFDDYAMH, GISWNSGSIGYADSVK, WGRGGGQFDY showed 38 µM (2 of 3 replicates; controls 0 of 9).
Variant GTTFDDYAMH, GISWNSGFIGYADSVK, VGRGGGSFDY showed 41 µM (1 of 3 replicates; controls 4 of 9).
Variant GFTFDDYADH, GISWNSGSIGYADSVK, VGRMGGYFDY showed 52 µM (1 of 3 replicates; controls 3 of 9).
Variant GHTFDDYAMH, FISWNSGSIGYADSVK, VCRGGGYFDY showed 54 µM (2 of 3 replicates; controls 2 of 9).
Variant GFTFDDYAMH, GVSTNSGSIGYADSVK, TGRGGGYFDY showed 58 µM (1 of 3 replicates; controls 4 of 9).
Variant GFRFDDYAMH, GPSWNSGSILYADSVK, VGRGGGYFDY showed 63 µM (2 of 3 replicates; controls 2 of 9).

Continued, with the values leading:

76 µM (1 of 3 replicates; controls 2 of 9): PQTFDDYAMH, GISWNSGSIGYAYSVK, VGRGGGYFDY.
97 µM (2 of 3 replicates; controls 6 of 9): GFTFDDYAMH, KISFNSGSIGYADSVK, RGRGGGYFDY.
120 µM (1 of 3 replicates; controls 2 of 9): GFTNDDYAMT, GISWNSGSILYADSVK, VGRGGGYFDY.
200 µM (2 of 3 replicates; controls 6 of 9): GFTFDDYAMH, GIQWNPGSIGYADSVK, VGRGGGCFDY.
210 µM (1 of 3 replicates; controls 1 of 9): GFTFDDYAMH, GISWNSGSIGYACSVK, VGRCAGYFDY.
240 µM (3 of 3 replicates; controls 3 of 9): GFTFDDYAMH, GISYNHGSIGYADSYK, VGRGGGYFDY.
360 µM (1 of 3 replicates; controls 4 of 9): VFTFDDYAAH, GISWNSGSIGYADSVK, VGRGGGYFDW.
nd (0 of 3 replicates; controls 1 of 9): GFTFDDYAMH, RISWNSGSITYADSVK, IGRGGGYFDY.
nd (0 of 3 replicates; controls 0 of 9): GFDFDDYAMH, GISWNSGSIGYADSVK, NGRGVGYFDY.
nd (0 of 3 replicates; controls 2 of 9): GFTFDDYAMH, GISENSGSIGEADSVK, VGRGGNYFDY.
nd (0 of 3 replicates; controls 2 of 9): GFTFDDYAMH, GISKWSGSIGYADSRK, VGRGGGYFDY.
nd (0 of 3 replicates; controls 1 of 9): GFGFDDYAMH, GISWMSGSIGYADKVK, VGRGGGYFDY.
nd (0 of 3 replicates; controls 1 of 9): GFTFDDYAMH, GASWNSGHIGYADSVK, VDRGGGYFDY.
nd (0 of 3 replicates; controls 3 of 9): GFTFDDYAMA, GISWNSGSIGYADSFK, VGRGGGYWDY.
nd (0 of 3 replicates; controls 0 of 9): GFTFDDYPMH, GISWNSNSIGYADSVK, VCRGGGYFDY.
nd (0 of 3 replicates; controls 2 of 9): GFTFDDYEMH, GWSWNSGSIGYADSVK, VGRGGYYFDY.
nd (0 of 3 replicates; controls 1 of 9): GFTFDDYAMH, GISWASGSIGYADSVK, VGRFIGYFDY.
nd (0 of 3 replicates; controls 2 of 9): GFTFDDYAMH, GISWGSGSIGYADSVK, KGRGGGYCDY.
nd (0 of 3 replicates; controls 0 of 9): GFTFDDYAMH, GISWNTGSIGQADSVK, VGRGGGKFDY.
nd (0 of 3 replicates; controls 0 of 9): GFTHDDYAQH, GISWNSGSIGYADSVW, VGRGGGYFDY.
nd (0 of 3 replicates; controls 0 of 9): GFTFDDIAMH, DISWNSGSIGYADSVK, VGRGMGYFDY.
nd (0 of 3 replicates; controls 1 of 9): GFTFDDYAMH, LISWNSRSIGYADSVK, VGRGGGYSDY.

Extract of 7 entries:

CDR-H1	CDR-H2	CDR-H3	apparent Kd	seen in	signal with controls
GFTFDDIAMH	DISWNSGSIGYADSVK	VGRGMGYFDY	nd	0 of 3	0 of 9
GFTFDDYAMH	GVSTNSGSIGYADSVK	TGRGGGYFDY	58 µM	1 of 3	4 of 9
GFTFDDYAMH	GISWNSGSIGYADWVK	VGRGGGLFSY	21 nM	3 of 3	2 of 9
GFTFDGYAMH	GISWNSGSDGYADSVK	VRRGGGYFDY	23 nM	3 of 3	0 of 9
GFTFDDYAMH	GISWGSGSIGYADSVK	KGRGGGYCDY	nd	0 of 3	2 of 9
GFTHDDYAQH	GISWNSGSIGYADSVW	VGRGGGYFDY	nd	0 of 3	0 of 9
VFTFDDYAAH	GISWNSGSIGYADSVK	VGRGGGYFDW	360 µM	1 of 3	4 of 9

For reference, the parent read 72 nM as the reference entry and 7.5 nM as a member of this library. Three control strains display no target. For library AAYL51, 21% of the pairings with them gave a signal, with a median of 34 µM and one signal in twenty below 1.8 µM, so weak values seen in few replicates may be background. Also given: how often the same scFv was detected with the empty control strains.

The measurements come from Engelhart et al. 2022 (doi:10.1038/s41597-022-01779-4) through the FLAb antibody collection.